Laboratory results from PubChem BioAssay (NCI).
The list shows a part of the results, in another mix than the full data.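 Values shown are percent growth following 48 h exposure of cells in 96-well plates to a single concentration of compound; below 10 was considered active.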 Active and inactive are the calls of the source.

Experiments:
Experiment in all cases: NCI-60 one-dose screen, 48 h (100 = growth as untreated, 0 = no growth, -100 = all killed)
Conditions in all cases: 10 µM unless noted
NCI/ADR-RES ovarian = system: NCI/ADR-RES ovarian
T-47D breast = system: T-47D breast
BT-549 breast = system: BT-549 breast
MDA-MB-435 melanoma = system: MDA-MB-435 melanoma
SW-620 colon = system: SW-620 colon
MCF7 breast = system: MCF7 breast
HCT-116 colon = system: HCT-116 colon
HCC-2998 colon = system: HCC-2998 colon
KM12 colon = system: KM12 colon

Measured: growth

O=C(c1ccccc1)C(NCCCl)c1ccccc1 (stereo not given)
inactive: NCI/ADR-RES ovarian 100% | T-47D breast 105% | BT-549 breast 89.5% | MDA-MB-435 melanoma 100% | SW-620 colon 100% | MCF7 breast 86.5% | HCT-116 colon 82.3% | HCC-2998 colon 97% | KM12 colon 99.1%

Nc1cccc2c([As](=O)(O)O)cccc12
inactive: NCI/ADR-RES ovarian 102% | T-47D breast 103% | BT-549 breast 113% | MDA-MB-435 melanoma 110% | SW-620 colon 112% | MCF7 breast 102% | HCT-116 colon 96.2% | HCC-2998 colon 126% | KM12 colon 111%

COc1ccc(N)c([N+](=O)[O-])c1[N+](=O)[O-]
inactive: NCI/ADR-RES ovarian 99.2% | T-47D breast 96.7% | BT-549 breast 114% | MDA-MB-435 melanoma 104% | SW-620 colon 106% | MCF7 breast 95.7% | HCT-116 colon 92.6% | HCC-2998 colon 113% | KM12 colon 114%

O=[As](O)(c1cccc(O)c1)c1cccc(O)c1
inactive: NCI/ADR-RES ovarian 92.8% | T-47D breast 111% | BT-549 breast 110% | MDA-MB-435 melanoma 104% | SW-620 colon 103% | MCF7 breast 83.4% | HCT-116 colon 92.7% | HCC-2998 colon 91.1% | KM12 colon 107%

O=P1(N(CCCl)CCCl)NCCC(C(F)(F)F)O1 (stereo not given)
inactive: NCI/ADR-RES ovarian 101% | T-47D breast 99.9% | BT-549 breast 94.4% | MDA-MB-435 melanoma 101% | SW-620 colon 98% | MCF7 breast 56% | HCT-116 colon 97.1% | HCC-2998 colon 96.2% | KM12 colon 101%

Clc1ccc(P(Cl)Cl)cc1
inactive: NCI/ADR-RES ovarian 101% | T-47D breast 120% | BT-549 breast 107% | MDA-MB-435 melanoma 110% | SW-620 colon 102% | MCF7 breast 94.8% | HCT-116 colon 111% | HCC-2998 colon 102% | KM12 colon 110%

NC1=NCC(Br)CS1 (stereo not given)
inactive: NCI/ADR-RES ovarian 104% | T-47D breast 95.1% | BT-549 breast 122% | MDA-MB-435 melanoma 89.9% | SW-620 colon 94.4% | MCF7 breast 107% | HCT-116 colon 100% | HCC-2998 colon 108% | KM12 colon 96.2%

Cc1ccc(OP(=O)(Nc2ccc([N+](=O)[O-])cn2)Oc2ccc(C)cc2)cc1
inactive: NCI/ADR-RES ovarian 96.6% | T-47D breast 97.6% | BT-549 breast 113% | MDA-MB-435 melanoma 109% | SW-620 colon 105% | MCF7 breast 89.5% | HCT-116 colon 96.4% | HCC-2998 colon 106% | KM12 colon 109%

COc1cccc(OC)c1N(CCCl)CCCl
inactive: NCI/ADR-RES ovarian 96.7% | T-47D breast 89% | BT-549 breast 100% | MDA-MB-435 melanoma 102% | SW-620 colon 100% | MCF7 breast 87.7% | HCT-116 colon 105% | HCC-2998 colon 104% | KM12 colon 102%

ClCCNCC1COc2ccccc2O1 (stereo not given)
inactive: NCI/ADR-RES ovarian 109% | T-47D breast 88.7% | BT-549 breast 99.4% | MDA-MB-435 melanoma 108% | SW-620 colon 104% | MCF7 breast 97.4% | HCT-116 colon 104% | HCC-2998 colon 110% | KM12 colon 98.8%

CCCN(CCCl)C1c2ccccc2-c2ccccc21
inactive: NCI/ADR-RES ovarian 98.6% | T-47D breast 77% | BT-549 breast 93.2% | MDA-MB-435 melanoma 97.8% | SW-620 colon 103% | MCF7 breast 91.8% | HCT-116 colon 93.9% | HCC-2998 colon 102% | KM12 colon 103%

CCN(CC)C(=O)Oc1ccc(/C=N/NC(N)=S)nc1
inactive: NCI/ADR-RES ovarian 89% | T-47D breast 73.3% | BT-549 breast 83% | MDA-MB-435 melanoma 92.8% | SW-620 colon 89.7% | MCF7 breast 85.1% | HCT-116 colon 82.5% | HCC-2998 colon 81.7% | KM12 colon 73.6%

CCN(CCCl)CC1OC(O)C(O)C1O (stereo not given)
inactive: NCI/ADR-RES ovarian 111% | T-47D breast 101% | BT-549 breast 106% | MDA-MB-435 melanoma 112% | SW-620 colon 108% | MCF7 breast 100% | HCT-116 colon 105% | HCC-2998 colon 115% | KM12 colon 114%

CN(CCCl)/N=N/c1nc2nc[nH]c(=O)c2[nH]1
inactive: NCI/ADR-RES ovarian 105% | T-47D breast 84.2% | BT-549 breast 95.4% | MDA-MB-435 melanoma 100% | SW-620 colon 105% | MCF7 breast 90.9% | HCT-116 colon 94.6% | HCC-2998 colon 95.3% | KM12 colon 102%

S=C(Nc1ccccc1)N(CCCl)CCCl
inactive: NCI/ADR-RES ovarian 105% | T-47D breast 102% | BT-549 breast 104% | MDA-MB-435 melanoma 98.3% | SW-620 colon 99.4% | MCF7 breast 96.7% | HCT-116 colon 105% | HCC-2998 colon 102% | KM12 colon 106%
